# Patent US20260284211A1, “DISACCHARIDE LINKER, LINKER-PAYLOAD CONTAINING THE SAME AND GLYCAN CHAIN-REMODELED ANTIBODY-DRUG CONJUGATE, PREPARATION METHOD AND USES THEREOF” (GENEQUANTUM HEALTHCARE (SUZHOU) CO., LTD., priority 2023, published 2026)
# System: NCI-N87 human gastric cancer cells
# Assay: NCI-N87 subcutaneous transplanted tumor model in mouse
# Format: in vivo, BALB/c nude mice
# Conditions: 5 mg/kg, 35 days after administration
# Method: NCI-N87 human gastric cancer cells were subcutaneously inoculated on the right back of female BALB/c nude mice. On the 6th day after tumor cell inoculation, the tumor-bearing mice were randomly divided into 4 groups, with 5 mice in each group. […] The diameter of tumor was measured with vernier caliper twice a week. The calculation formula of tumor volume is V=0.5a×b^2, wherein a and b represent the long and short diameters of tumor respectively. The weight of mice was measured twice a week, and the behavior, food intake, physical signs or other abnormal behaviors were observed every day.
# The calculation formula of relative tumor proliferation rate T/C (%) is as follows: T/C %=TRTV/CRTV×100% (TRTV: treatment group RTV; CRTV: negative control group RTV; RTV: relative tumor volume). RTV=Vt/V0, where V0 is the average tumor volume measured at the time of group administration, Vt is the average tumor volume measured at a certain time, and TRTV and CRTV take the data on the same day. […]
substance,measurement,value
Enhertu: Commercially available comparator given at 5 mg/kg in the NCI-N87 model,Anti-tumor effect (tumor volume) versus vehicle control,significant anti-tumor effects
